Data set [1] relates to PSMA + PC3-PIP and PSMA-PC3-flu flank xenografts. As to conditions: 4 H; no blocker; inhibitors reported in WO2017070482; cited from earlier work.
Data set [2] has as its system PSMA+PC3-PIP and PSMA-PC3-flu flank xenografts.
In data set [3] the test system is PSMA + PC3-PIP and PSMA-PC3-flu flank xenografts. The experiment in a line: Biodistribution of At-211 labeled PSMA inhibitors with and without cold blocking agent (Tables 6-8). In kind it is in vivo, athymic mice. As to conditions: 4 H; no blocker. Here is the method: 27, 2017, at 1 hour, 2-4 hours, and 21-24 hours, respectively.
Final compounds were purified by HPLC.

Read-outs that look alike come from different tables or passages of the source.

Data on three compounds can be found in patent US11813340B2, “PSMA targeted radiohalogenated urea-polyaminocarboxylates for cancer radiotherapy” (The Johns Hopkins University, priority 2018, dated 2023).

On to `O=C(O)CC[C@H](NC(=O)NC(CCCCNC(=O)c1ccc([211At])cc1)C(=O)O)C(=O)O` (stereo partly drawn) [YC-I-27, (2S)-2-(3-(1-Carboxy-5-(4-211At-Astatobenzamido)Pentyl)Ureido)-Pentanedioic Acid], for which, in data set [1], the “Biodistribution, PIP tumor” value is listed as 18.3 ± 2.9 % injected dose/g and the “Biodistribution, Stomach” value is listed as 13.3 ± 3.1 % injected dose/g.

Turning to `O=C([O-])CN1CCN(CC(=O)[O-])CCN(CC(=O)NCCCCC(=O)N(CCCC[C@H](NC(=O)N[C@@H](CCC(=O)O)C(=O)O)C(=O)O)Cc2ccc([125I])cc2)CCN(CC(=O)[O-])CC1.[Lu+3]` [[^125I]VK-02-90-Lu], the “Biodistribution, PIP tumor” value came to 14.3 ± 5.0 % injected dose/g in data set [2] (4-hr, Blocker YC-I-27 5 nmole); 18.3 ± 3.7 % injected dose/g in data set [2] (24-hour, Blocker VK-02-90 1.0 nmole); 10.6 ± 3.2 % injected dose/g in data set [2] (24-hour, Blocker VK-02-90 5.0 nmole); 12.6 ± 3.1 % injected dose/g in data set [2] (24-hour, Blocker YC-I-27 1.0 nmole).

On to `O=C([O-])CN1CCN(CC(=O)[O-])CCN(CC(=O)NCCCCC(=O)N(CCCC[C@H](NC(=O)N[C@@H](CCC(=O)O)C(=O)O)C(=O)O)Cc2ccc([211At])cc2)CCN(CC(=O)[O-])CC1.[Lu+3]` [[^211At]VK-02-90-Lu], for which the “Biodistribution, PIP tumor” value in data set [3] was 17.1 ± 5.2 % injected dose/g.
